Settings in all cases: read-out: % Inhibition Avg
Experiment [1] deals with PIK3CD/PIK3R1 (p110 delta/p85 alpha) (Homo sapiens, UniProt O00329). Nature of the experiment: SelectScreen kinase profiling, Adapta.
The target in the next experiment is CDK5 (Inactive) (Homo sapiens, UniProt Q00535). Nature of the experiment: SelectScreen kinase profiling, LanthaScreen binding. A general note: Time-resolved FRET reads energy transfer from a long-lived donor to a nearby acceptor.
For experiment [2], the target named is PIK3CB/PIK3R1 (p110 beta/p85 alpha) (Homo sapiens, UniProt P42338). Kind of experiment: SelectScreen kinase profiling, Adapta.
Experiment [3] has as its target PIK3CB/PIK3R2 (p110 beta/p85 beta) (Homo sapiens, UniProt P42338). Nature of the experiment: SelectScreen kinase profiling, Adapta.

Protein sequences, listed by entry. Tags and fused reporters are not part of them. Lines headed by an entry give the natural chain unless they say otherwise; changes in a name come on top.
UniProt O00329: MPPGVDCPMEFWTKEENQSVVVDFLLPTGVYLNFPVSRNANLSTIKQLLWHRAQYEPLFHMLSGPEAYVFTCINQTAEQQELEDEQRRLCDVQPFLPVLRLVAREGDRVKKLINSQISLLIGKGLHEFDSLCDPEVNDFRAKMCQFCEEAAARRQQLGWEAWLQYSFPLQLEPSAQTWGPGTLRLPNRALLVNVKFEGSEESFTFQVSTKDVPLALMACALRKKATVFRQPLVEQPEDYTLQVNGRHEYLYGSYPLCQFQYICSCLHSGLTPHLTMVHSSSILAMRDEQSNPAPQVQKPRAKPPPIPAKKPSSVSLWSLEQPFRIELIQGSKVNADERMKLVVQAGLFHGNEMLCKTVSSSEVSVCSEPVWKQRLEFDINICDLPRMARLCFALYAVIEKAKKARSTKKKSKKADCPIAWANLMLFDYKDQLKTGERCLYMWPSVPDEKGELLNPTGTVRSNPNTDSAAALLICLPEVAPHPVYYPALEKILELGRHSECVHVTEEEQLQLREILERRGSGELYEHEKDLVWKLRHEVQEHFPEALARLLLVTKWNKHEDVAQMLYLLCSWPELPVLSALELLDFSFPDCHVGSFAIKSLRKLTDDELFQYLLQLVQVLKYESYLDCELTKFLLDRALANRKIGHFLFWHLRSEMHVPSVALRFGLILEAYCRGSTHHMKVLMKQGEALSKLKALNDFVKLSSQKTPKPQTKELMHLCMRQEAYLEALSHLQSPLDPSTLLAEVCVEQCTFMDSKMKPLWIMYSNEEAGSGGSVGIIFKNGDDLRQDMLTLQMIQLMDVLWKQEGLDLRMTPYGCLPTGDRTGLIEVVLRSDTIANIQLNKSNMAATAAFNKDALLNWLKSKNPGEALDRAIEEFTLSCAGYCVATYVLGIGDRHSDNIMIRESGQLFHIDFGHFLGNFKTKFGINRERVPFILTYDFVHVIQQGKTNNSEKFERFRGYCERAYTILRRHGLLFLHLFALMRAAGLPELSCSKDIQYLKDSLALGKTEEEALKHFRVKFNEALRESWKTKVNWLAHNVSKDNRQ
UniProt Q00535, whole entry: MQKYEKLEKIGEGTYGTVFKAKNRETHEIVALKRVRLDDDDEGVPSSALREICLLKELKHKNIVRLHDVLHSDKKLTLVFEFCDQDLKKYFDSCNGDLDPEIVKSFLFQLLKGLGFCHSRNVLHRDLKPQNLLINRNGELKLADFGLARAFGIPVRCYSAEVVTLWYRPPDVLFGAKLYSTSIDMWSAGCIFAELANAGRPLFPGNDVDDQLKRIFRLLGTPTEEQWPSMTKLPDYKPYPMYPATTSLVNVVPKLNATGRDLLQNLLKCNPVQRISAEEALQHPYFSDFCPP
UniProt P42338: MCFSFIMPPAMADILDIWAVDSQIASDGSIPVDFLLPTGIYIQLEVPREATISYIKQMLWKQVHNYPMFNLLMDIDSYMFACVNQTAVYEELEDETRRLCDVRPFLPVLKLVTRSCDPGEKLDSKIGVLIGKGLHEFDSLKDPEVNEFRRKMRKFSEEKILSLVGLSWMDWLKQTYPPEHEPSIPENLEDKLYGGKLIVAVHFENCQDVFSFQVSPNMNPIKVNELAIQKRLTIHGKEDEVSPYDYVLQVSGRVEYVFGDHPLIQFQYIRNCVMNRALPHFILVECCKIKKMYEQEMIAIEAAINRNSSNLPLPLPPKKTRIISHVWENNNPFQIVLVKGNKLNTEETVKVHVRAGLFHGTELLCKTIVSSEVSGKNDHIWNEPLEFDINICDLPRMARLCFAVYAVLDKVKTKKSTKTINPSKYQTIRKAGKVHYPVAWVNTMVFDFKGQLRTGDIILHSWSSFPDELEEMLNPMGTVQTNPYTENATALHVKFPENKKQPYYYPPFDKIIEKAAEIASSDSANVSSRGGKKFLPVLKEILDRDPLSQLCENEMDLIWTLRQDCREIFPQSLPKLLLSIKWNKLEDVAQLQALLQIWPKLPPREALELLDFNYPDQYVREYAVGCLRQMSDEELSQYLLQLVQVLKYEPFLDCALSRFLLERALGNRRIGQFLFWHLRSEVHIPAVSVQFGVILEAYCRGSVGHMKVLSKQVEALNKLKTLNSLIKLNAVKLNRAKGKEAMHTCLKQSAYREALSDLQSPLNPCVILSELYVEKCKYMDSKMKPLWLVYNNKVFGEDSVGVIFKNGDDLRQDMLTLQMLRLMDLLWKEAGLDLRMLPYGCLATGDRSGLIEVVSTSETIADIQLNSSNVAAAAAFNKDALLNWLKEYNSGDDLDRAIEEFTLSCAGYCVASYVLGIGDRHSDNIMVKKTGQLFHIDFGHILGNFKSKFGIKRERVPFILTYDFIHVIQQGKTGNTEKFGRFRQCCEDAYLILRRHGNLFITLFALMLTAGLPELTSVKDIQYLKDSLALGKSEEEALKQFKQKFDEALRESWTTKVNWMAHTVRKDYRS

Structures are written as SMILES.

By inhibition is commonly meant the drop in the measured response relative to a control, in per cent. On to `O=C(c1ccc(/C=C/c2n[nH]c3ccccc23)cc1)N1CCNCC1` [KW-2449], for which the inhibition at 10 µM in experiment [1] was 20%; at CDK5 (Inactive) it was 8%; in experiment [2], -5%; in experiment [3] it was -10%.

Values taken from paper PMC6540285, “Evaluation of Protein Kinase Inhibitors with PLK4 Cross-Over Potential in a Pre-Clinical Model of Cancer” (International Journal of Molecular Sciences, 2019).
